Data taken from patent US5726302A, “Water soluble adenosine kinase inhibitors” (Gensia Inc., priority 1995, dated 1998).

The chains behind the UniProt entries cited, without tags or fusion partners. Residues count along the entry.
UniProt A0A5G2R0F5, 1-362: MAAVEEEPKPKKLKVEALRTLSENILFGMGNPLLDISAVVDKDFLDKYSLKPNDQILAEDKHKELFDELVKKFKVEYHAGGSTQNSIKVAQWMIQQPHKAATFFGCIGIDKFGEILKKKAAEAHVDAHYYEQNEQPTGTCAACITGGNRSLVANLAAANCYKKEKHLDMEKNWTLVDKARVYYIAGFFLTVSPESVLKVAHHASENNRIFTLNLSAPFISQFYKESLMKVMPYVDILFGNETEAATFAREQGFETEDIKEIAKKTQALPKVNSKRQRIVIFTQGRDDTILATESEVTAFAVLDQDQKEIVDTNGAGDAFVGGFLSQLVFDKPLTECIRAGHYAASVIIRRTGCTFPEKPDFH

Target: partially purified pig heart adenosine kinase (Sus scrofa, UniProt A0A5G2R0F5)
Assay: biochemical
Conditions: 0.5 μM adenosine, pH 7.0, 20 minutes at 37° C, read-out: AK Inhibition (IC50)
Procedure: Adenosine kinase activity was measured essentially as described by Yamada et al Biochim. Biophys. Acta 660, 36-43 (1988) with a few minor modifications. Assay mixtures contained 50 mM TRIS-maleate buffer, pH 7.0, 0.1% BSA, 1 mM ATP 1 mM MgCl2, 0.5 μM [U-^14 C] adenosine (400-600 mCi/mmol) and varying duplicate concentrations of inhibitor. The reactions were initiated by addition of approximately 0.1 μU partially purified pig heart adenosine kinase, where one unit is defined as that amount of enzyme required to phosphorylate 1 μmol adenosine per minute. The reactions were incubated for 20 minutes at 37° C. The assay was quenched upon spotting 30 μL aliquots onto 2 cm^2 pieces of Whatman DE81 anion exchange paper. The paper squares were washed for 3 minutes in 6 L distilled/deionized water to remove the unreacted adenosine. […] The amount of ^14 C-AMP was quantified by scintillation counting.

- IC50: 75 nM
SMILES: C[C@H]1O[C@@H](n2cc(I)c3c(NCc4ccncc4)ncnc32)[C@H](O)[C@@H]1O [Compound 42, 4-N-(4-pyridylmethylamino)-5-iodo-7-(5-deoxy-1-β-D-ribofuranosyl)pyrrolo[2,3-d]pyrimidine]
